Reference: patent US20170251943A1, “Systems Level State Characteristics in Experimental Treatment of Disease” (priority 2014, published 2017)

Test system: rats
Test: CNS state characterization (LFP PSDs, diencephalic/telencephalic structures) in pharmacological psychosis-like states
Type: in vivo, rat

Compound	LFP power spectra, MK-801 treated state versus Baseline (FIG. 7)	LFP power spectra of the drug-induced psychosis-like state (Hippocampus, Nucleus Accumbens, Thalamus, pink noise normalized, FIG. 6)
C[C@]12N[C@H](Cc3ccccc31)c1ccccc12 [MK-801]	could be differentiated from Baseline conditions	–
CNC1(c2ccccc2Cl)CCCCC1=O (centres unmarked) [Ketamine]	–	high-frequency narrow band oscillation in n. Accumbens
